Laboratory results reported in ChEMBL document CHEMBL1268872 (Bioorg Med Chem Lett, 2010).

Chains of the proteins cited; added tags and fusions are not shown.
UniProt Q16539, whole entry: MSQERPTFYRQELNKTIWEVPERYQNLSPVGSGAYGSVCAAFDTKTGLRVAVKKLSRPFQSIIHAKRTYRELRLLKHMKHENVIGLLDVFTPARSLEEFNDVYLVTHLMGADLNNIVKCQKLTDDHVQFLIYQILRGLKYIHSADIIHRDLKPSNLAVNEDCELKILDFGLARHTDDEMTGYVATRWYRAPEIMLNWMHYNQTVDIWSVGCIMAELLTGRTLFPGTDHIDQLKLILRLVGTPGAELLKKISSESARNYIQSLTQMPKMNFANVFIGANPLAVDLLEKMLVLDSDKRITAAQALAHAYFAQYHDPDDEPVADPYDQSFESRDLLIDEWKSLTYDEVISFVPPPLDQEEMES

How the values were obtained:
[1] = biological target: T1, Mitogen-activated protein kinase 14 (Homo sapiens, UniProt Q16539); experiment: Binding affinity to unphosphorylated p38alpha by fluoroprobe binding assay
[2] = biological target: T1, Mitogen-activated protein kinase 14; experiment: Inhibition of p38alpha by fluoroprobe binding assay
[3] = biological target: RAF proto-oncogene serine/threonine-protein kinase (Homo sapiens, UniProt P04049); experiment: Inhibition of CRAF

Row | IC50 [2] [µM] | SMILES | IC50 [1] [µM] | IC50 [3] [µM]
1 | – | NC(=O)Cc1cccc(-n2nc(-c3cccs3)cc2NC(=O)Nc2cccc(Cl)c2Cl)c1 | 0.048 | –
2 | 0.027 | CC(C)(C)c1cc(NC(=O)Nc2cccc3ccccc23)n(-c2ccc(CO)cc2)n1 | – | –
3 | – | CC(C)(C)c1cc(NC(=O)Nc2cccc(Cl)c2Cl)n(-c2cccc(CC(N)=O)c2)n1 | 0.009 | 0.011
